Here are results for two compounds from patent US20260098017A1, “NOVEL AROMATIC RING DERIVATIVE CONTAINING AMIDE SUBSTITUTION AND USE THEREOF” (TIANJIN PHARMACEUTICAL BIOTECHNOLOGY CO., LTD., priority 2022, published 2026).

Chains of the proteins cited; added tags and fusions are not shown.
UniProt P29597, whole entry: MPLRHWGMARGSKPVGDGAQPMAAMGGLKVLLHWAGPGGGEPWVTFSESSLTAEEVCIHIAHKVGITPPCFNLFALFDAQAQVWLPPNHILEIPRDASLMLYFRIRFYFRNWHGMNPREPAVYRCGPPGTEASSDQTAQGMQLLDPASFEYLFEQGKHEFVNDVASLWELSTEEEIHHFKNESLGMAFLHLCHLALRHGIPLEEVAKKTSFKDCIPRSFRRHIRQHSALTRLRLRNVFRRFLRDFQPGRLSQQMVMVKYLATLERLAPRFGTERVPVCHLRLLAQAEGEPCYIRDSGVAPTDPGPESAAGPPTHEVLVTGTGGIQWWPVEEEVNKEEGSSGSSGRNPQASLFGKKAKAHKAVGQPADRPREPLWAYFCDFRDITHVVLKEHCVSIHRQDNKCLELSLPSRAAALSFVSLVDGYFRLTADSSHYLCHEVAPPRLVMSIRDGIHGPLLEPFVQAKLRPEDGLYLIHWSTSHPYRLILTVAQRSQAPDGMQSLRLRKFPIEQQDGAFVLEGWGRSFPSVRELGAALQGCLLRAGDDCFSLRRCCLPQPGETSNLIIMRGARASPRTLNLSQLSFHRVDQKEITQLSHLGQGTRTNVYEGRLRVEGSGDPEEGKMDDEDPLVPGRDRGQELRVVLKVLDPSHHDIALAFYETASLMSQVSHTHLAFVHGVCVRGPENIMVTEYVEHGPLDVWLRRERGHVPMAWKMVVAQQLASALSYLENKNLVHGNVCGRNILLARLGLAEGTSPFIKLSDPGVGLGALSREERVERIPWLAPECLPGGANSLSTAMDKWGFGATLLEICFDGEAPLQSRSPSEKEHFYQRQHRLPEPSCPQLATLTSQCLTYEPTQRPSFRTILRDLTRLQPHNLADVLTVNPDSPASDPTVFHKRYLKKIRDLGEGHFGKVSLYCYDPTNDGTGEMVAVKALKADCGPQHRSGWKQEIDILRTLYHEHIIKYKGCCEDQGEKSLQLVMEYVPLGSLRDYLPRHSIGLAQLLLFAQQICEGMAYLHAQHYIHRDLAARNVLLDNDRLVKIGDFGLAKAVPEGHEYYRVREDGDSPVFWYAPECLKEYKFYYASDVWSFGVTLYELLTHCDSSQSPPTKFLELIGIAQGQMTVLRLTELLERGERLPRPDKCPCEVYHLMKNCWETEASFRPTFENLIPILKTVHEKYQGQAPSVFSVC

For this experiment, the target named is Ba/F3 cell line expressing TYK2 (Homo sapiens, UniProt P29597, cells depend on it, form not given). In words: In vitro cellular inhibition assay (Ba/F3 cell proliferation, CellTiter-Glo). Particulars: read-out: IC50. For orientation: Cellular ATP, detected with luciferase, serves as a proxy for viable cell number.

Regarding `[2H]C([2H])([2H])NC(=O)c1nnc(NC(=O)C2CC2)cc1Nc1cccc(C(=O)Nc2ccc(F)cn2)c1OC`, the GI50 lay within 5 to 10 nM.
For `[2H]C([2H])([2H])NC(=O)c1cnc(NC(=O)C2CC2)cc1Nc1cccc(C(=O)Nc2ccc(C)nc2)c1OC`, the GI50 was 5 to 10 nM.
